In the assay the target is Alpha-1A adrenergic receptor (Homo sapiens) (UniProt P35348). The assay can be described thus: In vitro binding affinity towards alpha-1A adrenergic receptor through displacement of [3H]prazosin in cloned human receptor.

One may read the Ki as a dissociation constant, usually derived from enzyme kinetics or from competition with a known ligand. Read a low Ki as a stronger hold on the target. For the molecule `O=C1CCC(=O)N1CCN1CCN(c2cc(Cl)ccc2Cl)CC1`, the Ki was 92 nM.

`O=C1CC2(CCCC2)CC(=O)N1CCN1CCN(c2cc(Cl)ccc2Cl)CC1` registered a Ki of 128 nM. This Ki and that of the molecule before are within 1.5-fold of each other.

Molecule `COc1ccccc1N1CCN(CCN2C(=O)CC3(CCCC3)CC2=O)CC1` [BMY-7378] had a Ki of 495 nM.

These data come from ChEMBL document CHEMBL1149137, “Synthesis, screening, and molecular modeling of new potent and selective antagonists at the alpha 1d adrenergic receptor” (J Med Chem, 2004).
